Paper PMC3827198, “Characterisation of AmphiAmR11, an Amphioxus (Branchiostoma floridae) D2-Dopamine-Like G Protein-Coupled Receptor” (PLoS ONE, 2013)
Where a name gives a salt, the structure may show the parent alone.

By UniProt entry, the sequences of proteins in these tests, tags left out.
UniProt A0PF35, entry or part of it: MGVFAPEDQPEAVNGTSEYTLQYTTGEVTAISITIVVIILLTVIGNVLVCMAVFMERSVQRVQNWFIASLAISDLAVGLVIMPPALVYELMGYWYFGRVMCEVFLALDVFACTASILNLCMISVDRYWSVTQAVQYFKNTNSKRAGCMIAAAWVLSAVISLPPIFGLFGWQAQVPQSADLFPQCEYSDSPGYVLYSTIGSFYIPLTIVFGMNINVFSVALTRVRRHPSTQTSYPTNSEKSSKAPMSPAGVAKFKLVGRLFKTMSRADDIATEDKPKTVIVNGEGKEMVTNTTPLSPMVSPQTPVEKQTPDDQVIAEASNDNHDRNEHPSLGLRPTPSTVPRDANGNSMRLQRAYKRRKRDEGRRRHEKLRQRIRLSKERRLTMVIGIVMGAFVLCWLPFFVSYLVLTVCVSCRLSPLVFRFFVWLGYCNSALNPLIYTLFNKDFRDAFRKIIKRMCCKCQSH

Key:
AmphiAmR11 [1] = biological target: T1, AmphiAmR11 (Branchiostoma floridae, UniProt A0PF35); assay: Inhibition of forskolin-stimulated cAMP levels in AmphiAmR11-expressing CHO-K1 cells (agonist mode); assay type: cell-based
AmphiAmR11 [2] = biological target: T1, AmphiAmR11; assay: Block of tyramine-induced inhibition of forskolin-stimulated cAMP levels in AmphiAmR11-expressing CHO-K1 cells; assay type: cell-based; details: 1 μM antagonist, 30 nM tyramine
AmphiAmR11 [3] = biological target: T1, AmphiAmR11; assay: ERK1/2 phosphorylation in AmphiAmR11-expressing CHO-K1 cells (Western blotting); assay type: cell-based
AmphiAmR11 [4] = biological target: T1, AmphiAmR11; assay: Block of dopamine-induced ERK1/2 activation in AmphiAmR11-expressing CHO-K1 cells by antagonists; assay type: cell-based; details: 1 µM antagonist, 10 nM dopamine, 5 min
DD2R = test system: DD2R; design: method as in PMID 12391323; details: cited from earlier work

Compound	Decrease of forskolin-stimulated cAMP levels by antagonist in the absence of agonist (AmphiAmR11 [1]; 1 μM antagonist, 10 µM forskolin)	Agonist type at AmphiAmR11 (full or partial) (AmphiAmR11 [1]; cAMP assay)	Inhibition of forskolin-stimulated cAMP levels (maximal) (AmphiAmR11 [1]; concentration-response curves, absence of other agonist)	Apparent enhancement of tyramine-induced inhibition of forskolin-stimulated cAMP levels (AmphiAmR11 [2])	Block of tyramine-induced inhibition of forskolin-stimulated cAMP levels (AmphiAmR11 [2]; 10 µM forskolin)	Effect of antagonist on ERK1/2 phosphorylation in the absence of dopamine (AmphiAmR11 [3]; 1 μM antagonist)	Block of dopamine-induced ERK1/2 activation (AmphiAmR11 [4])	Effect on forskolin-stimulated cAMP levels at 1 µM (AmphiAmR11 [1]; 1 µM agonist, 10 µM forskolin, 100 µM IBMX, 20 min)	Effect on ERK1/2 phosphorylation at 1 µM (AmphiAmR11 [3])	Activation of DD2R (DD2R)
CN1CCN2c3ccccc3Cc3ccccc3C2C1 (stereo not shown) [mianserin, mianserin hydrochloride]	could inhibit forskolin-stimulated cAMP levels	full agonists	greater than 90%	appeared to enhance	no significant blocking effect	increase in ERK1/2 phosphorylation	no significant effect			
CCCN1CCC[C@@H]2Cc3n[nH]cc3C[C@H]21 [quinpirole, (-)-quinpirole hydrochloride]								most effective agonists	most effective of the synthetic agonists	not to activate
